By UniProt entry, the sequences of proteins in these tests, tags left out.
Melanocortin receptor 4 (Homo sapiens), P32245, UniProt P32245, whole entry, looked up: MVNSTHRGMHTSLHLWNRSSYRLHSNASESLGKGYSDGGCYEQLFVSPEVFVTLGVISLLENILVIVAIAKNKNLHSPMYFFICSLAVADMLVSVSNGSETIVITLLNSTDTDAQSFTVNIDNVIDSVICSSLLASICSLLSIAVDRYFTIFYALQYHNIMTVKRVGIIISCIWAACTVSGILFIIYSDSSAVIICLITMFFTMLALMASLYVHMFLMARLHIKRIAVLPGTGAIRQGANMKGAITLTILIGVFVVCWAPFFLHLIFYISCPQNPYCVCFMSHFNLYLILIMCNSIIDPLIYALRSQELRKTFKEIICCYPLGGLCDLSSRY

# Sampled rows, rich in hits. Any-hit rate of the full collection: about 4.2%.
# NALP1 inh: NALP1 inflammasome inhibitors in reconstituted yeast, colorimetric, S. cerevisiae, triplicate retest. S. cerevisiae NALP1/ASC/caspase-1 growth, X-gal OD620, 72 h. inhibition, % at 10 µM. 280,000 compounds, 0.61% hits. AID 2071, 2009; in the data active = inhibition mostly above about 24%, no sharp cut-off; inactive = mostly below about 32%
# MC4R antag cAMP: MC4R antagonists of cAMP signaling, primary screen, cell-based, TR-FRET, antagonist arm of biased-ligand search; 360,000 compounds, 0.48% hits; inhibition, % at 6.5 µM; MC4R-expressing cells, MTII-stimulated cAMP, LANCE TR-FRET;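 active = inhibition above its plate's cutoff, the mean of tested wells on that plate plus 3 SD, cut at about 29% in these data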;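 note: 0% = Melanotan II alone and 100% = Melanotan II plus saturating MCL0020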
#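 System: U2OS-MC4R stable cell line; Technique: Eu-cAMP/anti-cAMP TR-FRET, emission 671 nm; Repeats: single well per compound; Also added: Melanotan II; Dosing: one concentration, 6.5 µM nominal; Schedule: 30-min compound, 1-h challenge, 1-h detection, room temperature.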
# ALR H2O2 inh: human ALR oxidase inhibition via reduced H2O2; P55789; 290,000 tested, 3.8% active; inhibition, % (no concentration beside the values); purified ALR, DTT oxidation, H2O2 HRP-luminol luminescence; AID 485317;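 active = mean and each replicate at 75% or more; inconclusive = only one of the two met; inactive = neither met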;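 note: stock transfer was 7.5 nL into about 7.5 µL; 0% = neutral wells and 100% = wells with inactivated enzyme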
# MC4R ag barr: MC4R agonists recruiting beta-arrestin, primary screen, cell-based, luminescence, agonist arm of biased-ligand search; activation, % at 8.9 µM; 360,000 compounds, 0.98% hits; U2OS MC4R beta-arrestin complementation; percent of melanotan II response, DMSO zero; Melanocortin receptor 4 (Homo sapiens), P32245;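 active = activation above a per-plate cutoff, the mean activation of sample wells on that plate plus 3 SD, cut at about 8% in these data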
# HDAC3 inhib: HDAC3 deacetylase inhibitors, primary screen, biochemical, fluorescence, cell-free homogeneous; inhibition, % at 8.3 µM; Histone deacetylase 3 (Homo sapiens), O15379; recombinant HDAC3, fluorogenic peptide/trypsin coupled; 320,000 compounds, 0.15% hits; in the data active = inhibition above about 26%, passing the limit was not always enough
# UUG fidelity: yeast start codon fidelity modulation; activity score, % at 18.7 µM; actives 0.13% (n = 350,000); S. cerevisiae UUG-firefly luciferase reporter, luminescence/redox ratio; AID 602363;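 active means replicate mean at a twofold rise or more, about +100% in these data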;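 further: firefly luciferase made from a UUG start codon reports start codon fidelity; reporter light over untreated wells divided by growth signal over untreated wells; some hits fall short of that in this replicate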
# Active calls of the source: *; . = no result given.
# Start of the data: the first 3 entries (preview)
SMILES	NALP1 inh	MC4R antag cAMP	ALR H2O2 inh	MC4R ag barr	HDAC3 inhib	UUG fidelity
COc1cccc(-c2ccc3c(c2)O[C@@H](CN(C)C(=O)C2CCC2)[C@H](C)CN([C@@H](C)CO)S3(=O)=O)c1	.	.	.	.	.	-17
Cc1noc(C)c1C(=O)Nc1c(F)cc(F)cc1Br	32	5	-3	0	-1	.
Cc1cc(C(=O)Nc2c(F)cc(F)cc2Br)c(C)o1	4	10	96*	1	3	-25

# All compounds of this part, from the start:
SMILES	NALP1 inh	MC4R antag cAMP	ALR H2O2 inh	MC4R ag barr	HDAC3 inhib	UUG fidelity
COc1cccc(-c2ccc3c(c2)O[C@@H](CN(C)C(=O)C2CCC2)[C@H](C)CN([C@@H](C)CO)S3(=O)=O)c1	.	.	.	.	.	-17
Cc1noc(C)c1C(=O)Nc1c(F)cc(F)cc1Br	32	5	-3	0	-1	.
Cc1cc(C(=O)Nc2c(F)cc(F)cc2Br)c(C)o1	4	10	96*	1	3	-25
O=C(C[C@@H]1CC[C@H](NC(=O)c2ccncc2)[C@@H](CO)O1)NCC1CCCCC1	.	.	.	.	.	-4
Cc1ccn2c(NC3CCCCC3)c(C(C)C)nc2c1	4	11	99*	-2	1	-8
Cc1ccn2c(NC3CCCCC3)c(C)nc2c1	8	6	95*	0	0	-17
Cc1cc(NC2CCCCC2)nc2ccccc12	-7	-12	-2	-2	.	.
Cc1ccnc(NC2CCCCC2)c1	21*	4	-7	-3	3	.
Cc1ccn2c(NC3CCCCC3)c(-c3cccc(-c4cccc(Cl)c4)c3)nc2c1	.	4	.	-2	1	-7
CCC(=O)Nc1ccc2c(c1)C(=O)N(C)C[C@@H](OC)[C@@H](C)CN(CC1CC1)[C@H](C)CO2	.	.	.	.	.	-11
C[C@H]1CN([C@@H](C)CO)C(=O)Cc2cc(NC(=O)C3CC3)ccc2O[C@H]1CN(C)C(=O)Nc1ccc2c(c1)OCO2	.	.	.	.	.	-2
C[C@@H]1CN([C@@H](C)CO)C(=O)c2cc(C#CC3CCCC3)cnc2O[C@H]1CN(C)C(=O)Cc1ccccn1	.	.	.	.	.	13
CCCOc1ccc(-c2nc(=S)[nH][nH]2)cc1	-5	-4	99*	-1	7	-10
S=c1[nH]nc(Cc2n[nH]c(=S)n2-c2ccccc2)n1-c1ccccc1	-3	3	93*	-3	9	-7
S=c1[nH]nc(CCc2ccccc2)n1-c1ccccc1	24	5	-3	-2	-9	.
S=c1[nH]nc(Cc2ccccc2)n1-c1ccccc1	0	5	87*	-3	8	-6
CC(C)OCC(O)CCc1n[nH]c(=S)n1-c1ccccc1 (stereo not given)	15	10	88*	-2	1	.
S=c1[nH]nc(Cc2ccccc2)n1-c1ccc(Cl)cc1	-12	1	58	-2	1	.
Cc1ccc(-n2c(-c3cnccn3)n[nH]c2=S)cc1	-17	12	88*	-1	5	.
Cc1ccc(-n2c(-c3ccncc3)n[nH]c2=S)cc1	2	14	11	-3	14	.
COc1ccc(NC(=O)N(C)C[C@H]2Oc3c(NC(=O)Nc4ccc(C(F)(F)F)cc4)cccc3C(=O)N([C@@H](C)CO)C[C@H]2C)cc1	.	.	.	.	.	-1
CCn1c(Cc2ccccc2)n[nH]c1=S	.	-6	29	0	-3	-29
Cc1ccc(-n2c(Cc3ccccc3)n[nH]c2=S)cc1	1	-2	92*	-3	-4	-16
S=c1[nH]nc(Cc2noc3ccccc23)n1-c1ccc(Cl)cc1	-3	17	92*	0	-3	.
Cc1ccc(-n2c(Cc3noc4ccccc34)n[nH]c2=S)cc1	12	0	41	-1	4	-18
CC(C)Cn1c(Cc2ccccc2)n[nH]c1=S	-14	-5	92*	-2	-13	-1
C[C@@H]1CN([C@@H](C)CO)C(=O)c2cc(NC(=O)Nc3ccccc3)ccc2O[C@H]1CN(C)C(=O)Nc1ccc(C(F)(F)F)cc1	.	.	.	.	.	11
CCCNC(=O)N[C@H]1C=C[C@H](CC(=O)NC2CCC2)O[C@H]1CO	.	.	.	.	.	-2
Cc1ccc(S(=O)(=O)N(C)C[C@H]2OCCCC[C@H](C)Oc3ccc(NC(=O)c4ccccc4)cc3C(=O)N([C@@H](C)CO)C[C@H]2C)cc1	.	.	.	.	.	0
C1CCC(OCCN2CCN(CCOC3CCCCC3)CC2)CC1	39*	-4	2	-1	-6	-26

# Source: PubChem (several laboratories)
